Experimental findings from PubChem BioAssay AID1224905 (ICCB-Longwood Screening Facility, Harvard Medical School, 2016) are described below.

Protein sequences, listed by entry. Tags and fused reporters are not part of them.
UniProt P08753, whole entry, looked up: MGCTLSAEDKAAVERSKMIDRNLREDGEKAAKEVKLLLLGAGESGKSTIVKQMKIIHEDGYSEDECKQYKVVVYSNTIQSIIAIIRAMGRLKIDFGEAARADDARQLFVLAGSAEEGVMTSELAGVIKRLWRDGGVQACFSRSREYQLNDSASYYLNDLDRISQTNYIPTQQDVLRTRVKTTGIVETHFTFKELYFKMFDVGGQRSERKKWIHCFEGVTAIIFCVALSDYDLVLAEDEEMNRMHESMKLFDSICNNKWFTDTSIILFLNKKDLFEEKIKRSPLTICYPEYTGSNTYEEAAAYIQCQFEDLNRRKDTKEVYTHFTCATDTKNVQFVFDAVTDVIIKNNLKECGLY

Out of some 210,000 compounds screened, about 880 (0.42%) were called active.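 Rule for the calls: active = replicate mean at 85% of control or lower with very high polarization wells dropped (limit read from the data); inactive = the rest.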 Many of the other results were omitted from the sample, so actives are more common in it than they were.

The target of this assay is Guanine nucleotide-binding protein G(i) subunit alpha-3 (Rattus norvegicus) (UniProt P08753). The assay can be described thus: disruptors of GIV-Galphai3 protein-protein interaction – biochemical, fluorescence polarization, FITC-GIV GBA peptide, rat Galphai3, primary screen (AID 1224905). The note with it: Galpha-i3/FITC-GIV peptide fluorescence polarization, 90 min; stronger effect = lower value; scaled: aluminum fluoride 0%, vehicle 100%. For orientation: In fluorescence polarisation assays a small probe gives low polarisation when free and higher when bound to something large.
In the case of `Cn1nc(-c2ccccc2F)c2cc(C(=O)Oc3ccc4cnccc4c3)sc21`, the percent of control (FP) was 109% (inactive).
Next, `N#CC1=C2Sc3ccccc3N2CC1=O`: -54.5% (active); `CCOC(=O)c1[nH]c(=O)[nH]c1CSc1nnc(SCc2[nH]c(=O)[nH]c2C(=O)OCC)s1`: 118% (inactive).
Consider `N#CSc1cc(SC#N)c(N)nc1N`, for which the percent of control (FP) was 16% (active).
Next, `COc1cccc(N/C(SCc2ccccc2C)=C(/C#N)C(=O)NCCc2ccc(OC)c(OC)c2)c1`: 104% (inactive); `CCC(C)OC(=O)C1=C(C)NC(=O)NC1c1ccc(OC)c(OCc2ccccc2)c1` (stereo not given): 99.4% (inactive); `CCOC(=O)c1ccc(N2N=C(C(F)(F)F)/C(=C/c3cc(Cl)c(O)c(OC)c3)C2=O)cc1`: 109% (inactive).
Next, `COc1cc(C=C2C(=O)NC(=O)NC2=O)cc(Cl)c1OCCOc1ccc(C)cc1`: 103% (inactive); `CCOc1cc(/C=C2/C(=O)N(c3nn[nH]n3)N=C2C)cc(Cl)c1OCC`: 74.3% (active).
For `O=C(C1CCN(c2nc(-c3ccc(Cl)cc3)no2)CC1)N1CCC(N2CCCCC2)CC1`, the percent of control (FP) was 104% (inactive).
With `CCSCCOC(=O)C1=C(C)N(C)C(=O)NC1c1ccccc1OCc1ccccc1` (stereo not given), the percent of control (FP) was 104% (inactive).
Next, `c1csc(Nc2nc3cc4c(cc3s2)OCO4)n1`: -40.2% (active).
For the compound `CC(=O)N(CCN(C)C)c1nc2cc3c(cc2s1)OCO3`, the percent of control (FP) was 100% (inactive).
As to `c1c2c(cc3sc(N4CCCCC4)nc13)OCCO2`, the percent of control (FP) was 101% (inactive).
In the case of `O=C(CCn1nnc2cc(S(=O)(=O)N3CCCC3)ccc21)N1CCN(c2ccccn2)CC1`, the percent of control (FP) was 112% (inactive).
Next, `Cc1c(CNCCc2ccc(S(N)(=O)=O)cc2)c(C(=O)O)c(C)n1Cc1ccc(F)cc1`: 98.6% (inactive); `CC1(C)C2CCC1(CS(=O)(=O)Nc1cc(C(=O)N3CCOCC3)ccc1N1CC3CC(C1)c1cccc(=O)n1C3)C(=O)C2` (stereo not given): 106% (inactive); `O=C(O)c1cc(N2C(=O)C3C4C=CC(CO)(O4)C3C2=O)ccc1Cl` (stereo not given): 103% (inactive).
With `CCN(CC)c1ccc2cc(C(N)=O)/c(=N\NC(=O)c3ccccc3)oc2c1`, the percent of control (FP) is -46.7% (active).
Next, `CCN(CC)c1ccc2cc(C(=O)NC(C)=O)c(=Nc3ccc(F)cc3F)oc2c1`: 117% (inactive).
Next, `CCN(CC)c1ccc2cc(C(=O)NC(C)=O)c(=Nc3ccccc3OC)oc2c1`: 114% (inactive); `O=S(=O)(NCc1ccco1)c1ccc(Cl)cc1`: 101% (inactive); `Cc1ccc2ccc3cc(C(=O)NC4CCCC4)nc3c2[nH]1`: 112% (inactive).
With `COc1ccccc1N1C(=O)/C(=C/c2ccc(Cl)cc2)C=C1c1ccccc1`, the percent of control (FP) was 78.1% (active).
On to `O=C1/C(=C/c2ccc([N+](=O)[O-])cc2)C=C(c2ccccc2)N1c1cccc(Cl)c1Cl`, for which the percent of control (FP) was 109% (inactive).
Next, `O=C1/C(=C/c2ccc(Br)cc2)C=C(c2ccccc2)N1c1ccccc1Br`: 119% (inactive).
As for `CC(C)NC(=O)C1=CC(c2ccco2)=NS(=O)(=O)N1C`, the percent of control (FP) is 107% (inactive).
As to `Cc1[nH]c(C(=O)Nc2ccc(F)cc2)c(C)c1S(=O)(=O)N1CCCC1`, the percent of control (FP) was 112% (inactive).
Next, `Cc1cc(C)nc(NS(=O)(=O)c2ccc(NC(=O)C(C)Oc3ccc(Cl)cc3Cl)cc2)n1` (stereo not given): 111% (inactive).
Next, `COc1ccc(C(=O)Oc2ccc(C(c3c(C)[nH]n(-c4ccccc4)c3=O)c3c(C)[nH]n(-c4ccccc4)c3=O)cc2)cc1`: 111% (inactive).
For the compound `CC1=NOC(=O)C1C(c1cccc(Br)c1)c1c(C)[nH]n(-c2ccccc2)c1=O` (stereo not given), the percent of control (FP) is 48.2% (active).
In the case of `Cc1[nH]n(-c2ccccc2)c(=O)c1C(c1ccc(C(F)(F)F)cc1)c1c(C)[nH]n(-c2ccccc2)c1=O`, the percent of control (FP) is 92.3% (inactive).
Next, `O=C(CSc1nnc2ccc(C(=O)NCc3ccccc3)cn12)Nc1ccccc1Br`: 95.4% (inactive); `CC(=O)Nc1cccc(NC(=O)c2sc3ncn(CC(=O)Nc4ccc(C)c(Cl)c4)c(=O)c3c2C)c1`: 107% (inactive); `CC1(C)CC(=O)C2=C(C1)OC1=C(C(=O)CC(C)(C)C1)C2c1ccc(Cl)cc1`: 107% (inactive).
On to `Cn1cc(S(=O)(=O)N2CCCCC2)cc1C(=O)N1CCc2ccccc2C1`, for which the percent of control (FP) is 107% (inactive).
Next, `COC(=O)c1ccc(C2C(S(=O)(=O)c3ccccc3)=C(O)C(=O)N2c2cccc(C)c2)cc1` (stereo not given): 101% (inactive).
Next, `CCCCN1C(=O)C(C)(C(=O)N2CCN(C)CC2)Oc2cccnc21` (stereo not given): 101% (inactive).
With `O=C(CCN1CCOCC1)Nc1cc(C(=O)Nc2ccc(F)c(F)c2)ccc1N1CC2CC(C1)c1cccc(=O)n1C2` (stereo not given), the percent of control (FP) is 115% (inactive).
Next, `CCCCN(C)C(=O)CCn1c(=S)[nH]c2c(oc3ccccc32)c1=O`: 100% (inactive).
Next, `O=C(O)c1c2ccccc2[nH]c2c1oc1cc(=O)ccc12`: 81.8% (active); `COC(=O)c1c(C)c(=O)[nH]c2ccccc12`: 102% (inactive).
Next, `CCn1cc(CCN2CCN(S(=O)(=O)c3ccc4c(c3)CCC4)CC2)c2cccnc21`: 108% (inactive).
For the compound `CCN(Cc1ccccc1)C(=O)Cn1c(=O)n(CCc2ccccc2)c(=O)c2ccccc21`, the percent of control (FP) was 102% (inactive).
As to `O=S(=O)(c1cc(-c2noc(C3CC3)n2)cs1)N1CCN(c2ccc(Cl)cc2)CC1`, the percent of control (FP) is 104% (inactive).
Next, `COC(=O)Cn1nc2c(-c3nc(-c4ccc(Cl)cc4)no3)cccn2c1=O`: 53.6% (active); `C=CCNc1ncccc1-c1nc(-c2ccc(Cl)cc2)no1`: 96.7% (inactive).
In the case of `CCOc1ccc(NC(=O)Nc2ccc(Cn3cnc(-c4nc(-c5ccc(Cl)cc5)no4)c3)cc2)cc1`, the percent of control (FP) is 102% (inactive).
Next, `CCCCN(CC)C(=O)c1c[nH]c2ccc(S(=O)(=O)N(C)c3ccc(Br)cc3)cc2c1=O`: 97.2% (inactive).
Next, `O=C1Nc2ccccc2O/C1=C\c1ccc(C(=O)NCc2ccco2)cc1`: 103% (inactive).
Regarding `CCOc1ccc(NC(=O)Nc2cccc(OCc3cc(=O)n4ccccc4n3)c2)cc1`, the percent of control (FP) was 100% (inactive).
Next, `O=c1c(-c2cc3ccccc3o2)[n+]([O-])c2ccccc2n1O`: 9.86% (active).
Next, `Cn1c(SCC(N)=O)nnc1-c1cc2ccccc2o1`: 98.6% (inactive); `COc1ccc2oc(=O)cc(-c3cc4ccccc4o3)c2c1`: 104% (inactive).
Next, `Cc1ccc([N+](=O)[O-])cc1S(=O)(=O)n1c(SCc2ccccc2F)nc2ccccc21`: 104% (inactive); `COc1cccc(N=Nc2c(O)[nH]c(=O)[nH]c2=O)c1`: 100% (inactive).
In the case of `COc1ccc(-c2ocnc2C(=O)O)cc1`, the percent of control (FP) was 108% (inactive).
With `COc1ccc(N=Nc2c(-c3ccc(OC)cc3)[nH]oc2=O)cc1`, the percent of control (FP) is 49% (active).
For the compound `Cc1ccc(-c2nnc3ccccc3c2C(=O)Nc2ccc3c(c2)OCCO3)cc1`, the percent of control (FP) is 101% (inactive).
For `COC(=O)/C=C1\Nc2ccccc2SC1=O`, the percent of control (FP) was 103% (inactive).
Next, `O=C1c2ccccc2S(=O)(=O)N1CC(O)COc1ccc2ccccc2c1` (stereo not given): 103% (inactive); `C/C(=N\c1nc2ccccc2n1C)c1cc(Cl)ccc1O`: 49.3% (active); `Cn1c(NC(=O)c2ccccc2)nc2ccccc21`: 97.8% (inactive).
Next, `Cn1c(=O)c(C(=O)NCCc2ccc(Cl)cc2)nc2ccccc21`: 105% (inactive).
Next, `Cn1cc(C(=O)Nc2ccc(Br)cc2)c2[nH]c(=O)n(-c3ccccc3)c(=O)c21`: 101% (inactive).
For the compound `COc1ccc(NC(=O)c2nn(C)c3c2CSc2ccc(Cl)cc2-3)cc1OC`, the percent of control (FP) is 102% (inactive).
Consider `COc1ccc(NC(=O)C2CCN(S(=O)(=O)c3cc4c(cc3C)NC(=O)CO4)CC2)cc1OC`, for which the percent of control (FP) is 98% (inactive).
Next, `O=S(=O)(c1ccccc1Cl)N1CCN(c2ncnc3c2nnn3-c2ccc(F)cc2)CC1`: 98.7% (inactive).
With `COc1ccc(-c2cc(-c3nc4c5sc6nc(C)cc(C)c6c5ncn4n3)[nH]n2)cc1`, the percent of control (FP) is 102% (inactive).
Next, `Cc1cc(C)c2c(n1)sc1c(=O)n(C)cnc12`: 103% (inactive); `Cc1cc(C)c2c(N)c(-c3n[nH]c(=S)n3C)sc2n1`: -53.5% (active).
As for `Cc1ccc(N2C(=O)C3C4c5ccccc5C(C=O)(c5ccccc54)C3C2=O)c(Br)c1` (stereo not given), the percent of control (FP) is 123% (inactive).
Next, `COCCNC(=O)c1ccccc1NC(=O)c1ccc(F)cc1`: 104% (inactive); `COC(=O)CN1C(c2ccccc2)=Nc2ccc(Br)cc2C1c1ccccc1` (stereo not given): 107% (inactive); `COc1ccc(CNS(=O)(=O)c2ccc(F)c(C(=O)Nc3ccc(Br)cc3F)c2)cc1`: 111% (inactive).
For `N#C/C(=C/c1ccc(N2CCCCC2)o1)C(=O)NCCc1c[nH]c2ccccc12`, the percent of control (FP) was -90.3% (active).
Next, `Cc1nn(CC(=O)NCCc2c[nH]c3ccccc23)c(=O)c2noc(C)c12`: 98.7% (inactive); `O=C(NCCc1c[nH]c2ccccc12)c1cc(=O)nc2sc(N3CCCC3)nn12`: 106% (inactive).
`CCCCN(CC)c1ncnc2ccc(C)cc12`: the percent of control (FP) was 101% (inactive).
`N#CC(C#N)=Cc1ccc(-c2cccc(C(=O)O)c2)o1`: the percent of control (FP) was 102% (inactive).
Consider `Cc1ccc2nc(/C(C#N)=C/c3ccccc3F)[nH]c2c1`, for which the percent of control (FP) is 113% (inactive).
Regarding `Cc1ccc2nc(/C(C#N)=C/c3ccc(-c4ccc(C(=O)OC(C)C)cc4)o3)[nH]c2c1`, the percent of control (FP) was -57.6% (active).
Next, `O=C(OCCN1CCCCC1)C1COc2ccccc2O1` (stereo not given): 102% (inactive); `CN(Cc1ccccc1)S(=O)(=O)c1ccc2c3c(cccc13)C(=O)N2`: 104% (inactive); `Nc1ccc2c3c(cccc13)C(=O)NC2=O`: -7.99% (active).
Next, `CC1CN(S(=O)(=O)c2ccc3c4c(cccc24)C(=O)N3)CC(C)O1` (stereo not given): 96.8% (inactive).
Consider `C#CCSc1c(CCCC)cnc2c1c(=O)n(C)c(=O)n2C`, for which the percent of control (FP) is 106% (inactive).
As to `COC(CNC(=O)c1cn(C)c2ccc(S(=O)(=O)N3CCCC3)cc2c1=O)OC`, the percent of control (FP) was 106% (inactive).
Turning to `CCOc1ccc(/C(O)=C2/C(=O)C(=O)N(CCN3CCOCC3)C23C(=O)N(C)c2ccccc23)cc1` (stereo not given), the percent of control (FP) was 107% (inactive).
Next, `Cc1cc(Br)ccc1NC(=O)Cn1c2ccccc2c(=O)c2ccccc21`: 99.8% (inactive).
Turning to `CCN1C(=O)c2cccc3c(S(=O)(=O)N4CCN(CCO)CC4)ccc1c23`, the percent of control (FP) was 108% (inactive).
Next, `CCN1C(=O)c2cccc3c(NC(=S)NC(=O)c4ccccc4)ccc1c23`: -23.8% (active).
Next, `CCN1C(=O)c2cccc3c(S(=O)(=O)N4CCc5ccccc54)ccc1c23`: 101% (inactive); `Cc1cc(C)n(C(=O)c2sccc2S(=O)(=O)N(C)c2ccc(C)c(Cl)c2)n1`: 95.4% (inactive); `O=C(NCC(c1ccccc1Cl)N1CCCC1)c1cc(-c2ccccc2)on1` (stereo not given): 113% (inactive).
